Reference: patent US11185553B2, “Pharmaceutical composition for preventing or treating ischemic-reperfusion injury comprising bile acids” (priority 2016, dated 2021)

System: human umbilical vein endothelial cells (HUVECs)
Conditions: 1 μM, Boyden chamber, vs control group; for cell migration effect (cell staining): FIG. 5A

Row | Structure (SMILES) | cell migration effect (cell staining) | cell migration (cell counting, migration assay) (FIG. 5B)
1 | C[C@H](CCC(=O)NCCS(=O)(=O)O)[C@H]1CC[C@H]2[C@@H]3[C@H](O)C[C@@H]4C[C@H](O)CC[C@]4(C)[C@H]3C[C@H](O)[C@]12C [TauroCA, taurocholic acid] | significantly higher than that of the control group | –
2 | C[C@H](CCC(=O)O)[C@H]1CC[C@H]2[C@@H]3[C@H](O)C[C@@H]4C[C@H](O)CC[C@]4(C)[C@H]3C[C@H](O)[C@]12C [cholic acid] | significantly higher than that of the control group | significantly increased
